## Binding of CDR-mutated scFvs to a peptide of the spike HR2 region

Binding partner: SARS-CoV-2 spike HR2 peptide, sequence PDVDLGDISGINAS.

The variants keep the heavy chain, the linker and the frameworks of Ab-14 (scFv order VH, a 15-residue (Gly4Ser)3 linker, VL).
VH: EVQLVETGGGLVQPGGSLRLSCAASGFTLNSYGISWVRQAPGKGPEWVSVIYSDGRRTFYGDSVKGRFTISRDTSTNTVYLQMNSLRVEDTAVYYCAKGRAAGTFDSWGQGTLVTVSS
VL: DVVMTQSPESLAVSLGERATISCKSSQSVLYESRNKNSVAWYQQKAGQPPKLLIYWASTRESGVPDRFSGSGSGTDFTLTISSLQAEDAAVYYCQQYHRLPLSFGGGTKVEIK

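The starting antibody came from a phage panning campaign against this peptide. These sequences belong to a second round, designed from the earlier measurements on random variants of the parent. Group labels follow the data file (Ctrl: baseline library sampled from a position-specific scoring matrix, with some repeated check sequences; En: ensemble of fine-tuned language models; GP: Gaussian process model; HC: hill climbing; Gen: genetic algorithm; Gibbs: Gibbs sampling; a sequence that several methods proposed may carry one label only). AlphaSeq pools MATa yeast showing the antibodies with MATalpha yeast showing the peptide. After mating in shaken culture at 30 °C for 16 h, diploids were selected and their barcode pairs sequenced. The ratio of observed to expected reads was calibrated, replicate by replicate, on BCL2-family standards whose Kd was known from biolayer interferometry. Each pool was mated in six replicate cultures.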

Each variant's VL is given in full. Affinities are written as log10 Kd with Kd in nM; a lower number is a better binder. A mean of the replicates is given; it leaves out those without a signal. "not detected" means that the variant was in the library but no mating with the target was seen in any replicate; the authors take this as a sign of poor binding, and no number exists. The list is sorted by this average, lowest first, undetected variants last. In the paper, a design with two or fewer of six values counts as a poor binder.

VL	group	mean log10 Kd (nM)	detected
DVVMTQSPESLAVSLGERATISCKSDQSWLYESRNKNSVAWYQQKAGQPPKLLIYGASFRESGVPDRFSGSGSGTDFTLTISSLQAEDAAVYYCQQYHRLPLSFGGGTKVEIK	GP_HC	-0.17	6/6
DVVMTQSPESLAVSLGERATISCKVSQSYLYESRNKNSVAWYQQKAGQPPKLLIYNASQRESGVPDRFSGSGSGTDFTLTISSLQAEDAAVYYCQQYHRLPLSFGGGTKVEIK	GP_Gen	-0.04	6/6
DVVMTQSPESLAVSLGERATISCTISGVMQTQSHSKNNVAWYQQKAGQPPKLLIYEMTTREKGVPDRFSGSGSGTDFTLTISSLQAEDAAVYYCQQYVRLPLAFGGGTKVEIK	En_Gen	0.03	6/6
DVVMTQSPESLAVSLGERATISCKLSQSWLYESRNANSVAWYQQKAGQPPKLLIYNASQRESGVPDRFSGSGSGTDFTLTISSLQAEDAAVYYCQQYHRLPLSFGGGTKVEIK	GP_Gen	0.17	6/6
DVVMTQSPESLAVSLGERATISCKIGMTLNQLMHQKQNVAWYQQKAGQPPKLLIYDLVMRENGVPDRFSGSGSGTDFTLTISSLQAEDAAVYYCQQYHRLPLSFGGGTKVEIK	En_Gen	0.19	6/6
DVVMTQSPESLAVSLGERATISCKLSQSYLYESTNSNSVAWYQQKAGQPPKLLIYDASTRYSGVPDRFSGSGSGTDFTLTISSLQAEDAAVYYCQQYHRLPLSFGGGTKVEIK	GP_Gibbs	0.20	6/6
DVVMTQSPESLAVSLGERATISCKLSQSELYESRVKNSVAWYQQKAGQPPKLLIYNASTRESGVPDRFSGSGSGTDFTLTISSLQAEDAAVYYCQQYHRLPLSFGGGTKVEIK	GP_Gen	0.22	6/6
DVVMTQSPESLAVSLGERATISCKLPQSTLYESRNKNSVAWYQQKAGQPPKLLIYQASTRESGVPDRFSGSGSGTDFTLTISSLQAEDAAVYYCQQYHRLPLSFGGGTKVEIK	GP_Gen	0.41	6/6
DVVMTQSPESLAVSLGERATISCHIQDAEGGLSSQWNSVAWYQQKAGQPPKLLIYSTEERSDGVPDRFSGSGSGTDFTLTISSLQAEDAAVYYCQSYHRLPLSFGGGTKVEIK	En_Gibbs	0.81	6/6
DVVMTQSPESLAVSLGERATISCKLYMSTAMTSRMKNNVAWYQQKAGQPPKLLIYDLNERERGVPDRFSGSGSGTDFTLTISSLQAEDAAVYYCQQYFRLPLSFGGGTKVEIK	En_HC	0.87	6/6
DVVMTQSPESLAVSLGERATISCKFLQSVLYESRNKNSVAWYQQKAGQPPKLLIYHASTREDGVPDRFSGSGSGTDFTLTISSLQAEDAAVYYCQQYHQLPLSFGGGTKVEIK	GP_HC	0.88	6/6
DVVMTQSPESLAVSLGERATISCRLSALSGIQSVERNSVAWYQQKAGQPPKLLIYQNSTRESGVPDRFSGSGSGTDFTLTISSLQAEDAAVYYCQQYDHLPLSFGGGTKVEIK	En_Gen	1.15	1/6
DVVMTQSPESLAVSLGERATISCKISGYLNKESKNTNSVAWYQQKAGQPPKLLIYEMVNRESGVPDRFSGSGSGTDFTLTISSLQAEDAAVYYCQQYDRLPLSFGGGTKVEIK	En_HC	1.65	3/6
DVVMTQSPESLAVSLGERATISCKSSESVLYEDRNKNSVAWYQQKAGQPPKLLIYWASTRESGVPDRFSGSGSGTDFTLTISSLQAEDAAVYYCQQYHRLPLSFGGGTKVEIK	Ctrl	2.60	1/6
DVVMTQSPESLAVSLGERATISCKSSQSVLYETRNKNSVAWYQQKAGQPPKLLIYWASTRESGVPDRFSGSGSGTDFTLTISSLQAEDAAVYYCQQYYRLPLSFGGGTKVEIK	Ctrl	3.03	3/6
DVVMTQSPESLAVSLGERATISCKSSQSVLYEFRNKNSVAWYQQKAGQPPKLLIYRASTRESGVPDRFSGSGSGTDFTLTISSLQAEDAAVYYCQQVHRLPLSFGGGTKVEIK	Ctrl	not detected	0/6

Repeated from above, the 2 best binders with a signal in all replicates:

VL	group	mean log10 Kd (nM)	detected
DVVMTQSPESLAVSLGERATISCKSDQSWLYESRNKNSVAWYQQKAGQPPKLLIYGASFRESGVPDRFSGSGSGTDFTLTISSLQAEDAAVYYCQQYHRLPLSFGGGTKVEIK	GP_HC	-0.17	6/6
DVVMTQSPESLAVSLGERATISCKVSQSYLYESRNKNSVAWYQQKAGQPPKLLIYNASQRESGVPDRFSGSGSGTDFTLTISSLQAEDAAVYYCQQYHRLPLSFGGGTKVEIK	GP_Gen	-0.04	6/6

The range of this assay differs from that of the first round, and the authors advise against merging the two. As a blank, each scFv also met three strains without target: over all light chain designs, 4% of these pairings were detected, typically at 2.64 and seldom below 1.59.

The measurements come from Li et al. 2023 (doi:10.1038/s41467-023-39022-2) through the FLAb antibody collection.